Source: patent publication US10426815B2, “Prevention and treatment of itch with an MRGPR antagonist” (THE GENERAL HOSPITAL CORPORATION, priority 2015, dated 2019)
Entries after “also recorded” stand apart in the source; their conditions may differ.

Protein sequences, listed by entry. Tags and fused reporters are not part of them.
UniProt P25103, whole entry: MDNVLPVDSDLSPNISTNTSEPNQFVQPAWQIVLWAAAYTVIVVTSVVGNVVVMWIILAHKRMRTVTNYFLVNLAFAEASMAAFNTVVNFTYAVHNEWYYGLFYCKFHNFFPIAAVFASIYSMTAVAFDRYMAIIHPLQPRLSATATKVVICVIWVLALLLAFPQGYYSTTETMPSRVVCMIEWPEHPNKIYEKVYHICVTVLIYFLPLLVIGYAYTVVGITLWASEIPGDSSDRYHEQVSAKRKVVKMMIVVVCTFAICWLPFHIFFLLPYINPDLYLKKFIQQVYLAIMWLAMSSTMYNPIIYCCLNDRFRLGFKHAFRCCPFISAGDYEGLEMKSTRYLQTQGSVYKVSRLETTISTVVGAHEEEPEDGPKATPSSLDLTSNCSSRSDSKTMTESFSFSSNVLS

Columns and labels:
NK1R (NK1) = target: T1, NK1R (NK1) (Homo sapiens, UniProt P25103); assay: Calcium imaging of cells transfected with the GPCR (Table 1); assay type: cell-based; settings: NPFF 50 μM
T1 construct: host or cells: HeLa cells, pcDNA3.1(-)
Description: Human NK1 cDNA was obtained from LIFE Technologies, PCR cloned with Xho I-Hind III ends and cloned into pcDNA3.1(−). Mouse NK2 and NK3 expression-ready vectors were obtained from GENSCRIPT (Piscataway, N.J.). All other Mrgprs (human MRGPRX1, human MRGPRX2, human MRGPRX3, human MRGPRX4, mouse MrgprA2a, mouse MrgprA2b, mouse MrgprA3, mouse MrgprA4, mouse MrgprA9, mouse MrgprA10, mouse MrgprB4 and mouse MrgprB5) were cloned by PCR from genomic DNAs and inserted into pcDNA3.1 (−).
10 μg of expression vector (human MRGPRX2, mouse MrgprA1 or NK1) and 10 μl of LIPOFECTAMINE 2000 transfection reagent were diluted into 0.5 ml of DMEM and separately left at room temperature (RT) for 5 min. They were then mixed and incubated at RT for 20 minutes prior to being added to HeLa cells. HeLa cells were grown to confluence, trypsinized and 1×10^6 cells were pelleted in a 15 ml tube by centrifugation at 1000 rpm for 5 minutes. […]
Calcium imaging was performed immediately after loading cells with Fura-2, using a ZEISS Axiovert 200M microscope platform equipped with a flipping filter wheel for ratiometric imaging. […] The software later analyzed all images taken during each excitation period. Ratiometric changes were measured in 10-20 cells in each individual experiment. An average of the fluorescence of the cells in each image was calculated and plotted against time in seconds. […]

MrgA1 (mouse MrgprA1) = target: T2, MrgA1 (mouse MrgprA1) (Mus musculus, UniProt Q91WW5); assay: as above; assay type: cell-based
T2 construct: host or cells: HeLa cells
T2 sequence (Q91WW5 1-304): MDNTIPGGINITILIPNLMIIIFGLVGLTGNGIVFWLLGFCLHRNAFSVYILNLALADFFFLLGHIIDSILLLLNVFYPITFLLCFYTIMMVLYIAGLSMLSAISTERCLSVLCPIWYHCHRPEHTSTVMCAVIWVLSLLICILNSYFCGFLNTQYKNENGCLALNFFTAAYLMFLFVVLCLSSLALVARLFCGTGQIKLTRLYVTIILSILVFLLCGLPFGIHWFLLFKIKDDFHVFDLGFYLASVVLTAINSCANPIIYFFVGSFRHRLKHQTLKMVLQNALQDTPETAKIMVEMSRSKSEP
Description: (§1) human MRGPRX2 was isolated by PCR from human genomic DNA using the forward and reverse primers, […] (SEQ. ID. NO: 3) and […] (SEQ. ID. NO: 4), and cloned into pcDNA3.1(−). The mouse MrgprA1 cDNA expression clone was purchased from ORIGENE Technologies. The mouse MrgprB2 coding sequences were PCR-amplified from mouse genomic DNA using the primer pair, […] (SEQ. ID. NO: 5) and […] (SEQ. ID. NO: 6), and cloned into pcDNA3.1 (−).
(§2) 10 μg of expression vector (human MRGPRX2, mouse MrgprA1 or NK1) and 10 μl of LIPOFECTAMINE 2000 transfection reagent were diluted into 0.5 ml of DMEM and separately left at room temperature (RT) for 5 min. They were then mixed and incubated at RT for 20 minutes prior to being added to HeLa cells. HeLa cells were grown to confluence, trypsinized and 1×10^6 cells were pelleted in a 15 ml tube by centrifugation at 1000 rpm for 5 minutes. The DMEM-LIPOFECTAMINE 2000-DNA mixture (1 ml) was then added to the cell pellet, suspended and incubated at RT for 5 minutes. 2 ml of complete DMEM with 10% FBS without antibiotics were added to the tube, mixed by inverting the tube, plated into a 96-well glass bottom plate at 50,000 cells/well, and placed in a 37° C. CO2 incubator for 3 hours. HeLa cells transfected with salmon sperm DNA were plated as a control. The medium was changed after 3 hours and left in the incubator. 24 hours after transfection, the medium in the wells was removed and 100 μl of complete DMEM containing 2 μM of FURA-2 were added to each well and left at room temperature in the dark for 1 hr. Following loading with FURA-2, the medium was removed, washed with PBS and replaced with 90 μl of HEPES-buffered saline (20 mM HEPES, 115 mM NaCl, 5.4 mM KCl, 2 mM CaCl2, 0.8 mM MgCl2, 13.8 mM glucose, pH 7.4).
(§3) Calcium imaging was performed immediately after loading cells with Fura-2, using a ZEISS Axiovert 200M microscope platform equipped with a flipping filter wheel for ratiometric imaging. Axiovision software, version 4.6 was used for calcium image analysis of the cells excited at 340 nm and 380 nm. Agonists were added at 15 seconds after the start of the excitation procedure. […] The software later analyzed all images taken during each excitation period. Ratiometric changes were measured in 10-20 cells in each individual experiment. An average of the fluorescence of the cells in each image was calculated and plotted against time in seconds.
(§4) HeLa cells transfected with human MRGPRX2, mouse MrgprA1 and NK1 cDNAs were subjected to ratiometric imaging as described above with SP at concentrations from 0.1 nM-50 μM. Each of the concentration dependent readings was performed in triplicate. Maximum intensities at each of the dilutions were calculated and plotted against concentration using GraphPad Prism software. […]

MrgX2 (human MRGPRX2) [1] = target: T3, MrgX2 (human MRGPRX2) (Homo sapiens, UniProt Q96LB1); assay: as above; assay type: cell-based
T3 construct: expressed in transfected cells; host or cells: HeLa cells, pcDNA3.1(-)
T3 sequence (Q96LB1 1-330): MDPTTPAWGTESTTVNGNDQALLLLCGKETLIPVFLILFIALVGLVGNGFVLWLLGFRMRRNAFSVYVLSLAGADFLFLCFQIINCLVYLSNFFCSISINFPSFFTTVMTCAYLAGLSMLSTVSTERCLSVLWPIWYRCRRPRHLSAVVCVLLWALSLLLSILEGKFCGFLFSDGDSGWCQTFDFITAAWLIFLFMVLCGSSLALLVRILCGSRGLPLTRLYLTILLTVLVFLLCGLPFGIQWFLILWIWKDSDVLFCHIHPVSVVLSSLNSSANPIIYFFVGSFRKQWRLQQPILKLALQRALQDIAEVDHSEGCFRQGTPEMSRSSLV
Description: as §1, §2, §3, §4

MrgX2 (human MRGPRX2) [2] = target: T3, MrgX2 (human MRGPRX2); settings: reference 15; cited from earlier work

SP: inflammatory undecapeptide neuropeptide of the tachykinin family, synthesized by GenScript
activation of NK1 by the substance (in words) (NK1R (NK1)): specifically activated; also recorded: activates | potency of SP on mMrgprA1 relative to NK1R (MrgA1 (mouse MrgprA1)): equal potency | potency of SP on hMRGPRX2 relative to NK1R (MrgX2 (human MRGPRX2) [1]): equal potency | SP activity on Mrgprs, rank order from concentration-effect curves (MrgX2 (human MRGPRX2) [1]; FIG. 5c): human MRGPRX2>mouse MrgprA1>mouse MrgprB2 | activation of human MRGPRX2 by the substance (in words) (MrgX2 (human MRGPRX2) [1]; NPFF 50 μM, capsaicin 3 μM, SP at nanomolar concentrations): activates; also recorded: specifically activated | SP activity on human MRGPRX2 relative to mouse MrgprB2 (MrgX2 (human MRGPRX2) [2]): 500 times
